Laboratory results published in patent US7365162B2, “Stabilized bioactive peptides and methods of identification, synthesis, and use” (priority 1998, dated 2008).

Assay type: in vivo, Sprague-Dawley rats
Conditions: rat, intravenous bolus, plasma
Protocol: A catheter was placed in the right jugular vein of six Male Sprague-Dawley rats for dosing and sampling. Two rats were used for each of the three compounds that were tested. The rats received an intravenous bolus injection of the peptide, and serial blood samples (0.3 ml) were obtained.

Percent remaining after 20 minutes (20 minutes): 0.2% | Percent remaining after 60 minutes (60 minutes): 0.0%
SMILES: CSCC[C@H](NC(=O)[C@H](CC(C)C)NC(=O)[C@H](Cc1c[nH]c2ccccc12)NC(=O)[C@H](CCC(N)=O)NC(=O)[C@@H](NC(=O)[C@H](Cc1ccccc1)NC(=O)[C@H](CC(=O)O)NC(=O)[C@H](CCC(N)=O)NC(=O)[C@H](C)NC(=O)[C@H](CCCN=C(N)N)NC(=O)[C@H](CCCN=C(N)N)NC(=O)[C@H](CO)NC(=O)[C@H](CC(=O)O)NC(=O)[C@H](CC(C)C)NC(=O)[C@H](Cc1ccc(O)cc1)NC(=O)[C@H](CCCCN)NC(=O)[C@H](CO)NC(=O)[C@H](Cc1ccc(O)cc1)NC(=O)[C@H](CC(=O)O)NC(=O)[C@H](CO)NC(=O)[C@@H](NC(=O)[C@H](Cc1ccccc1)NC(=O)[C@@H](NC(=O)CNC(=O)[C@H](CCC(N)=O)NC(=O)[C@H](CO)NC(=O)[C@@H](N)Cc1c[nH]cn1)[C@@H](C)O)[C@@H](C)O)C(C)C)C(=O)N[C@@H](CC(N)=O)C(=O)N[C@H](C(=O)O)[C@@H](C)O [Glucagon]
